What was measured:
WT hCB2 receptor = WT hCB2 receptor (Homo sapiens, UniProt P34972); assay: Competitive binding assay, WT hCB2
[1] = target: hCB2 C6.47(257)S mutant receptor (Homo sapiens, UniProt P34972, C257S); assay: Competitive binding assay, hCB2 C6.47
[2] = target: hCB2 C6.47(257)A mutant receptor (Homo sapiens, UniProt P34972, C257A); assay: Competitive binding assay, hCB2 C6.47

Sequences of proteins named here, by UniProt entry; tags and fusion partners are left off.
UniProt P34972, whole entry: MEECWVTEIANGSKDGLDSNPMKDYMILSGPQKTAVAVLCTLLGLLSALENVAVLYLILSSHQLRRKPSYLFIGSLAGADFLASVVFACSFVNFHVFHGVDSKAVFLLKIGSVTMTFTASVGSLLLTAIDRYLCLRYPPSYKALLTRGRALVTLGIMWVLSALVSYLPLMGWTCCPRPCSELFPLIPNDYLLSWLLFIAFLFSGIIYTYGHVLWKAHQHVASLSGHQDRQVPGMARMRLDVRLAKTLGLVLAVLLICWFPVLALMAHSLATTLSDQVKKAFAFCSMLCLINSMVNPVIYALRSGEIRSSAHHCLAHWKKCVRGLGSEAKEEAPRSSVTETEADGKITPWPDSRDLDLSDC
UniProt P34972, whole entry C257S: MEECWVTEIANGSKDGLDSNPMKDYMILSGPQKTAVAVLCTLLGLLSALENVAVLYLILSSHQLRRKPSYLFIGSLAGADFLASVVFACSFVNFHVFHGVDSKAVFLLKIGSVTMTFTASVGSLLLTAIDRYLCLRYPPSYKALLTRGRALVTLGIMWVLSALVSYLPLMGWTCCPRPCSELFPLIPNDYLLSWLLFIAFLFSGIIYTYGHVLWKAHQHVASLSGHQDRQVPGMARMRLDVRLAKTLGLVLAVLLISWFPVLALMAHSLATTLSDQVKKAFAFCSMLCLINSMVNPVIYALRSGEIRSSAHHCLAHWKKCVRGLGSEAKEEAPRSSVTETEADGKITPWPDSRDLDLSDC
UniProt P34972, whole entry C257A: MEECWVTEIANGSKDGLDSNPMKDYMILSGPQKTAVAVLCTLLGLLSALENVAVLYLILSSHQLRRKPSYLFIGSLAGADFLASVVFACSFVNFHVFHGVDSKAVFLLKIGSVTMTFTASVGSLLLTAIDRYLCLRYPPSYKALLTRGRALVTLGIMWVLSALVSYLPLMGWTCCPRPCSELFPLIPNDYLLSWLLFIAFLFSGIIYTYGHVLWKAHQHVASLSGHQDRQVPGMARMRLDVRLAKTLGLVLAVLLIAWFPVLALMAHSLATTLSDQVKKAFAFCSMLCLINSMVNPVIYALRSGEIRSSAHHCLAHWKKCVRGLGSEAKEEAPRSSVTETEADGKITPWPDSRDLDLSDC

For `CCCCC/C=C\C/C=C\C/C=C\C/C=C\CCCC(=O)NCCO` [AEA, anandamide, reference compound], the Ki (WT hCB2 receptor) was 209 nM, the Ki [1] was 366 nM and the Ki [2] was 211 nM.

From publication PMC3700404 (Chemistry & biology, 2008)
